One compound from article PMC3479967, “Drug-Drug Interactions Potential of Icariin and Its Intestinal Metabolites via Inhibition of Intestinal UDP-Glucuronosyltransferases” (Evidence-based Complementary and Alternative Medicine : eCAM, 2012) can be followed below.

The assay has as its target T1, UGT1A3 (Homo sapiens, UniProt P35503).
T1 sequence (P35503 29-534): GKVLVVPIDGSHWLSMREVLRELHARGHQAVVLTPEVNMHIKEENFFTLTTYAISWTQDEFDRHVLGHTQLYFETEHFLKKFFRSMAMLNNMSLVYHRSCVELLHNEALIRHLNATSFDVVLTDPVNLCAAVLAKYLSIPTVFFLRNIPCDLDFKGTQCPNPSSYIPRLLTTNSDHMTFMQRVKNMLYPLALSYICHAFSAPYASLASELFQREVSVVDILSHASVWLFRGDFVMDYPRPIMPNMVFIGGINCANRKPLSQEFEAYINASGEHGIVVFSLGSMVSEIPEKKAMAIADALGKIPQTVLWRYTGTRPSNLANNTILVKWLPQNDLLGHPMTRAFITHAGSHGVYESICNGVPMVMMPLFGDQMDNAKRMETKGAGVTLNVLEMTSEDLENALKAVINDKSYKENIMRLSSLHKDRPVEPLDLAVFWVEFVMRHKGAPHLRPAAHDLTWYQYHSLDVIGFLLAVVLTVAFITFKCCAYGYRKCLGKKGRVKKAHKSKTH
Briefly: Inhibition of recombinant UGT1A3 activity (4-MU glucuronidation). On the procedure:
A panel of recombinant human UGT supersomes (UGT1A1, UGT1A3, UGT1A4, UGT1A6, UGT1A7, UGT1A8, UGT1A9, UGT1A10, UGT2B4, UGT2B7, UGT2B15, and UGT2B17) expressed in baculovirus-infected insect cells were purchased from BD Gentest Corp. (Woburn, MA, USA).
4-MU, a nonselective substrate of UGTs, was used as probe substrate for all UGTs except UGT1A4. Incubations with each individual enzyme were conducted using conditions previously described. There was a 5 min preincubation step at 37°C before the reaction was started by addition of UDPGA. The incubation mixtures were then centrifuged at 20,500 ×g for 15 min to obtain the supernatant. Aliquots (20 μL) were then analyzed by HPLC. The HPLC system (SHIMADZU, Kyoto, Japan) consisted of an SCL-10A system controller, two LC-10AT pumps, a SIL-10A auto injector, and a SPD-10AVP UV detector. […] The mobile phase consisted of 10 mM KH2PO4, pH 2.7 (A) and acetonitrile (B). […]
Inhibition data from experiments were graphically represented by Dixon plots. K i values were calculated by nonlinear regression using the equations for competitive inhibition (1), noncompetitive inhibition (2), or mixed inhibition (3), [22] […] The type of inhibition was determined from the enzyme inhibition models. […]

For `COc1ccc(-c2oc3c(CC=C(C)C)c(O[C@@H]4O[C@H](CO)[C@@H](O)[C@H](O)[C@H]4O)cc(O)c3c(=O)c2O[C@@H]2O[C@@H](C)[C@H](O)[C@@H](O)[C@H]2O)cc1` [Icariin], the “Inhibition type against UGT1A3” value is recorded as “competitive”.
